Patent US20040191826A1

What was measured:
DPP8/V5/His (human) = DPP8/V5/His (human) (UniProt Q6V1X1); test: cell-based or functional assay
DPPIV/V5/His (human) = DPPIV/V5/His (human) (UniProt P27487); test: cell-based or functional assay

Residual activity (% of control), H-Ala-Pro-pNA hydrolysis, inhibitor at 4 ug/mL (DPP8/V5/His (human)): 47 % of control | Residual activity (% of control), H-Gly-Pro-pNA hydrolysis, inhibitor at 4 ug/mL (DPPIV/V5/His (human)): 81 % of control
Substance: Aprotinin (from UniProt P00974 36-93)
